Values quoted from earlier work in patent US7030155B2, “Emulsion vehicle for poorly soluble drugs” (Sonus Pharmaceuticals, Inc., priority 1998, dated 2006).
Read-outs that look alike come from different tables or passages of the source.

CC(=O)O[C@H]1C(=O)[C@@]2(C)[C@H]([C@H](OC(=O)c3ccccc3)[C@]3(O)C[C@H](OC(=O)[C@H](O)[C@@H](NC(=O)c4ccccc4)c4ccccc4)C(C)=C1C3(C)C)[C@]1(OC(C)=O)CO[C@@H]1C[C@@H]2O [paclitaxel]
solubility of paclitaxel (30% PVP in water): ≤ 300 µg/mL
solubility of paclitaxel (35% PEG 400 in water): 30 µg/mL
